Reference: patent publication US8507510B2, “Sulfoximine-substituted pyrimidines as CDK- and/or VEGF inhibitors, their production and use as pharmaceutical agents” (Bayer Intellectual Property GmbH, priority 2003, dated 2013)

Assays:
[1] = system: MaTu-ADR; experiment: Proliferation assay, MaTu-ADR; format: cell-based, human; settings: MaTu-ADR cells, 4 days, crystal violet
Text: Cultivated human tumor cells (MCF7, […] human breast cancer cells, related to ATCC HTB22; NCI-H460, human non-small-cell lung cancer cells, ATCC HTB-177, HCT 116, human colon cancer cells, ATCC CCL-247; DU 145, hormone-independent human prostate cancer cells, ATCC HTB-81; MaTu-MDR, hormone-independent, multiple pharmaceutical agent-resistant human breast cancer cells, EPO-GmbH, Berlin) were flattened out at a density of about 5000 cells/measuring point, depending on the growth rate of the respective cells, in a 96-well multititer plate in 200 μl of the corresponding growth medium. […] The cell proliferation was determined by coloring the cells with crystal violet: the cells were fixed by adding 20 μl/measuring point of an 11% glutaric aldehyde solution for 15 minutes at room temperature. […] The extinction was determined by photometry at a wavelength of 595 nm The change of cell growth, in percent, was calculated by normalization of the measured values to the extinction values of the zero-point plate (=0%) and the extinction of the untreated (0 μm) cells (=100%).

[2] = target: CDK2/CycE (Homo sapiens (Human), UniProt P24941); experiment: CDK2/CycE kinase assay; format: biochemical; settings: histone IIIS substrate, 0.5 μm ATP

SMILES: CCS(=N)(=O)c1ccc(Nc2ncc(Br)c(N[C@H](C)C(C)(C)O)n2)cc1 (mixture of isomers) [Example 1.54, (RS)—S-[4-({5-bromo-4-[(R)-(2-hydroxy-1,2-dimethylpropyl)amino]pyrimidin-2-yl}amino)phenyl]-S-ethyl sulfoximide]
- IC50 [1]: 70 nM

SMILES: C[C@@H](Nc1nc(Nc2ccc(S(=N)(=O)CCO)cc2)ncc1Br)C(C)(C)O (single isomer, unassigned) [Example 1.15]
- IC50 [2]: 4 nM

SMILES: Cc1cc(Nc2ncc(Br)c(N[C@H](C)C(C)(C)O)n2)ccc1S(C)(=N)=O (single isomer, unassigned) [Example 1.59]
- IC50 [2]: 7 nM
